Measured values as given in publication PMC8900816, “High-resolution structures of the bound effectors avadomide (CC-122) and iberdomide (CC-220) highlight advantages and limitations of the MsCI4 soaking system” (Acta Crystallographica. Section D, Structural Biology, 2022).

Biological target: T1, MsCI4 (Magnetospirillum gryphiswaldense, UniProt A4TVL0)
T1 construct: gene MGR_0879; wild-type single-domain bacterial cereblon homologue; pETHis1a, E. coli C41(DE3); His tag removed with TEV; three monomers per asymmetric unit; structural zinc; RED-NHS amine-labelled for MST
T1 sequence (A4TVL0 1-124): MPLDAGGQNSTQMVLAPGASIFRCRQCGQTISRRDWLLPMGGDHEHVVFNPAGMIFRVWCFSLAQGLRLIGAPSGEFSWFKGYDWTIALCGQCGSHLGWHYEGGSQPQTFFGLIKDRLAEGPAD
Experiment: labelled microscale thermophoresis
Assay type: binding
Conditions: read-out: MsCI4 (K d, μM) / Labelled MST
Description: labelled microscale thermophoresis on MsCI4

## O=C1CC[C@H](N2C(=O)c3ccccc3C2=O)C(=O)N1 [Thalidomide]
  Kd: 6.68 ± 0.8 µM
